This passage reports Log K results from ChEMBL document CHEMBL1124267, “Potential antitumor agents. 54. Chromophore requirements for in vivo antitumor activity among the general class of linear tricyclic carboxamides” (J Med Chem, 1988).

For this experiment, the system named is poly[d(A-T)] / poly[d(G-C)]. The experiment can be described thus: Binding constant for poly[d(A-T)] / poly[d(G-C)] by ethidium displacement.

Values joined by “and” are separate entries in the source; they are usually repeats but may differ in a detail not shown here. Identical values can stand only once.

As for `CN(C)CCNC(=O)c1cccn2c(=O)c3ccccc3nc12`, the Log K is 6.14 and 6.23.
